According to PubChem BioAssay AID2517 (National Center for Advancing Translational Sciences (NCATS), 2010):
Only a part is listed here, and it is no random draw. Results filed as inconclusive are left out. Activity calls are given as the source filed them. The call rests on the fitted dose curve; in most records, active means well fitted inhibition curve with a large enough effect; inconclusive means small, poorly fitted or top-dose-only effect; inactive means no such curve, though single readings can be large or run the other way.

Sequences of proteins named here, by UniProt entry; tags and fusion partners are left off.
UniProt P27695, whole entry: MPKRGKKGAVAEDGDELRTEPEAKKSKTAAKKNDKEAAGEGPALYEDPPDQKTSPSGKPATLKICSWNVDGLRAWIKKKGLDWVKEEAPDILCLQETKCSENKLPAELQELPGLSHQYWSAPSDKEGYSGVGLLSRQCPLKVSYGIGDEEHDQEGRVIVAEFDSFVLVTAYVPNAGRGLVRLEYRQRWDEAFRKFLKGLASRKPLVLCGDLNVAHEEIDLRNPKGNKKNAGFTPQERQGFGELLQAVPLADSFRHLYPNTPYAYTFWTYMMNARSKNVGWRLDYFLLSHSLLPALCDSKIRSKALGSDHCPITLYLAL

biological target: DNA repair nuclease/redox regulator APEX1 (Homo sapiens) (UniProt P27695); assay: qHTS Assay for Inhibitors of the Human Apurinic/apyrimidinic Endonuclease 1 (APE1); conditions: recombinant APE1, TAMRA/BHQ-2 abasic DNA cleavage fluorescence; at 65.8 µM (top of the series);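 further: plate controls were vehicle for no effect and reference inhibitor for full effect; nearly all actives have a fitted effect of over 55% in size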

Compound	activity change, negative = inhibition
c1nnnn1CCn1cnnn1	inactive: -1.4%
Cc1ccc(C)c(NP(C)(=O)Oc2ccccc2)c1 (configuration not stated)	inactive: 13.9%
